# Test results published in US20100322948A1, “Bone morphogenetic protein (BMP)-binding domains of proteins of the repulsive guidance molecule (RGM) protein family and functional fragments thereof, and use of same” (ABBOTT GMBH & CO. KG, priority 2007, published 2010).
# B1: Recombinant human BMP-2 (ligand, UniProt P12643 283-396, looked up)
# chain: QAKHKQRKRLKSSCKRHPLYVDFSDVGWNDWIVAPPGYHAFYCHGECPFPLADHLNSTNHAIVQTLVNSVNSKIPKACCVPTELSAISMLYLDENEKVVLKNYQDMVVEGCGCR
# notes: Bought protein; also called rhBMP-2; recombinant h BMP-2
# System: BMP signalling (rhBMP-2-induced luciferase activity)
# Experiment: BRE-Luc assay on BMP signalling in BMP-responsive C3H10-B12 cells
# Type: cell-based
# Settings: rhBMP-2 from 0 to 50 ng/ml, FIG. 9
# Description: Evaluation of the Agonistic or Antagonistic Effect of h RMG A on BMP Signalling using BRE-Luc Assay
# a) Materials: • Three compounds were provided at 200 μg/ml.
# fragment #788 (IgK/hRGM A 47-422/Xa cleavage site/Fc) • recombinant h BMP-2 (from CHO cells; #355-BM) and monoclonal anti-human BMP2/4 antibodies (#MAB3552) were obtained from R&D Systems Europe, Lille, France • Bright-Glo Luciferase assay kit were purchased from Promega
# BMP-responsive C3H10-B12 (Logeart-Avramoglou D, Bourguignon M, Oudina K, Ten Dijke P, Petite H. An assay for the determination of biologically active bone morphogenetic proteins using cells transfected with an inhibitor of differentiation promoter-luciferase construct. Anal Biochem 2006;349:78-86) were plated in 96-wells plates at a density of 4×10^4 cells/cm^2 and cultured in BME (BME=Eagle's Basal Medium) (supplemented with 10% FBS), in a humidified, 37° C., 5% CO2/95% air environment for 24 h. Cells were rinsed twice with PBS and cultured under BME/0.5% (w/v) BSA containing either each AS compounds tested or anti-human BMP2/4 antibodies (from 0.01 to 10,000 ng/ml) without or with rhBMP-2 (at 50 ng/ml) for 24 h before being assayed for the contained luciferase activity. All experiments were performed in triplicate, and were repeated at two separate times.
molecule,measurement,value
B1,luciferase activity response,dose-dependent response
